Test [1] relates to Ba/F3 EGFR DEL/T790M/L844V. The test can be described thus: Ba/F3 cell proliferation (MTS) assay. In kind it is cell-based, murine. The settings on record: Mus musculus.
For another test, the system named is Ba/F3 EGFR L858R/L844V. Briefly: Ba/F3 cell proliferation (MTS) assay. As to conditions: Mus musculus. In kind it is cell-based, murine.
[2] abbreviates: Ba/F3, EGFR DEL/T790M/L844V, 72 hours, MTS, read-out: IC50.
The mark [3] stands for this setting: Ba/F3, EGFR L858R/L844V, 72 hours, MTS, read-out: IC50.

The structures appear in SMILES notation. Read-outs that look alike come from different tables or passages of the source.

What is called IC50 is the concentration that gives 50% inhibition.

With `C=CC(=O)Nc1cc(Nc2nccc(-c3cn(C)c4ccccc34)n2)c(OC)cc1N(C)CCN(C)C` [AZD9291], the IC50 in test [1] (Ba/F3 EGFR, 72 h) was 21.6 nM; in the test with Ba/F3 EGFR L858R/L844V (Ba/F3 EGFR, 72 h), 29.2 nM.

As to `C=CC(=O)Nc1cc(Nc2nccc(-n3ccc4cccnc43)n2)c(OC)cc1N(C)CCN(C)C` [Compound I-1, N-(5-((4-(1H-pyrrolo[2,3-b]pyridin-1-yl)pyrimidin-2-yl)amino)-2-((2-(dimethylamino)ethyl)(methyl)amino)-4-methoxyphenyl)acrylamide], the IC50 in test [1] (setting [2]) came out at 89 nM; with Ba/F3 EGFR L858R/L844V (setting [3]) it was 283 nM.

Turning to `C=CC(=O)Nc1cccc(Oc2nc(Nc3ccc(N4CCN(C)CC4)cc3OC)ncc2Cl)c1` [WZ4002], the IC50 in test [1] (setting [2]) came out at 822 nM; in the test on Ba/F3 EGFR L858R/L844V (setting [3]) it was 860 nM.

The values are drawn from patent US12331037B2, “Pyrimidines as EGFR-inhibitors and methods of treating disorders” (Dana-Farber Cancer Institute, Inc., priority 2014, dated 2025).
